Antibody variant affinities, Ab-14 light chain, assay B

From the AlphaSeq antibody data of Li et al. 2023 (doi:10.1038/s41467-023-39022-2), copy in the FLAb collection.

All variants were tested on one target, the spike HR2 peptide PDVDLGDISGINAS (SARS-CoV-2).

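The parent was found by panning a naive human phage display library on the peptide. These sequences belong to a second round, designed from the earlier measurements on random variants of the parent. Their group label is 14L_GP_Gibbs (GP: Gaussian process model; Gibbs: Gibbs sampling; a sequence that several methods proposed may carry one label only). Affinity was read by AlphaSeq, a pooled yeast mating assay with surface-displayed partners. Pairs that bind mate more often; barcode pairs of the diploids are counted by sequencing. Scores were corrected for input abundance and mapped to Kd with protein pairs of known affinity run in the same pool. Each pool was mated in six replicate cultures.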

Each scFv is VH, three GGGGS repeats, VL, as in the parent Ab-14, and differs from it in the CDRs of the light chain only.
VH: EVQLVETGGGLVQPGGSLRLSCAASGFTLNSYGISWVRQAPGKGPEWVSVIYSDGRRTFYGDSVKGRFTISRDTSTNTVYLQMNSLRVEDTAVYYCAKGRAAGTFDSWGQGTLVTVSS
VL: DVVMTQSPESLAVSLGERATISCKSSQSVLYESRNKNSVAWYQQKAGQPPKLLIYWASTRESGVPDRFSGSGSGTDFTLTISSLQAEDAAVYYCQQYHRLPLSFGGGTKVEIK

Variants are written as CDR1, CDR2 and CDR3 of the light chain (limits as in the source). Parent: KSSQSVLYESRNKNSVA, WASTRES, QQYHRLPLS.
The read-out is the apparent dissociation constant on a log10 scale (nM): the lower, the stronger.
The mean shown is taken over the replicates in which the pair was detected.
The authors' rule: three or more of the six replicates give a measured affinity, fewer mean a poor binder.
Background: pairings of all light chain designs with three empty control strains gave a value in 4% of cases (median 2.64, 5th percentile 1.59). Values in that range, when seen in few replicates, are hard to tell from nonspecific mating. Also given: how often the same scFv was detected with the empty control strains, with their mean in brackets.
Of ten entries with the parent sequence, four were seen in most replicates (averages 0.34 to 2.37), three in one and three in none, so single entries are noisy.
Values of this round are not directly comparable with the first-round values of the same sequences.

CDR-L1,CDR-L2,CDR-L3,log10 Kd (nM) by replicate,"log10 Kd (nM), mean",empty controls
KFEWSWLYESRNKNSVA,NASTRES,QQYWRLPLS,1.17 0.81 0.85 0.70 1.11 0.80,0.91,0/18
KMSMSWPYEDLMKNSVA,NASTRMQ,QQYHRLPLS,0.49 0.32 0.34 0.20 0.24 0.35,0.32,1/18 (2.30)
KVSQSDPYDSPNKNSVA,NASTRMQ,QQYHRLPLS,0.03 0.18 -0.15 -0.06 0.29 0.29,0.10,0/18
KIHQSVLYEDRNINSVA,SASQRYS,QQYHRLPLS,0.14 0.01 -0.09 -0.22 -0.22 0.11,-0.05,1/18 (1.93)
KVDFLGLYEQRNKNSVA,SASTRES,QQYHRLPLS,0.11 -0.15 -0.09 -0.27 -0.29 -0.15,-0.14,0/18
KFMQMVMQEDRNKNSVA,QASTRMQ,QQYHRLPLS,0.04 -0.02 0.10 -0.19 -0.01 0.19,0.02,3/18 (3.16)
KLSQSVLYEMRVKNSVA,QAVTRES,QQYHRLPLS,0.25 0.26 -0.27 0.10 0.55 0.30,0.20,0/18
KFSGSHLYESRMGNSVA,NASQRED,QQYHRLPLS,-0.31 -0.05 -0.19 -0.32 -0.01 -0.06,-0.16,0/18
KLSQLVLMEQRNHNSVA,SANTREE,QQYHRLPLS,-0.11 -0.19 -0.46 -0.67 -0.47 -0.05,-0.32,0/18
KSSQIVLGMDGMKNSVA,QASQRES,QQYHRLPLS,-0.10 -0.26 -0.35 -0.47 0.24 -0.07,-0.17,2/18 (2.86)
KSPFSVYYGDRNKNSVA,EASTRES,QQYHRLPLS,0.56 0.91 0.29 0.35 -0.12 0.32,0.39,0/18
KFMQSMGYESRNKNSVA,DASTRSS,QQYHRLPLS,0.14 -0.07 0.16 -0.08 0.11 0.32,0.10,3/18 (2.43)
KLQQSVLPESRNKNSVA,EASLRLS,QQYHRLPLS,0.84 0.37 0.66 0.54 0.48 0.55,0.57,3/18 (2.18)
KWEMSQLYESRNKNSVA,NASLRMS,QQYHRLPLS,0.71 0.43 0.30 0.41 0.23 0.42,0.41,3/18 (2.56)
KLSPSVLGMWRNKNSVA,NASTRES,QQYHRLPLS,0.12 -0.01 -0.21 -0.30 -0.02 0.22,-0.03,1/18 (2.01)
KFQQSQLYESRQKNSVA,NASCRCS,QQYHRLPLS,0.64 0.61 0.43 0.51 0.46 0.79,0.57,2/18 (3.71)
KLFQSYEYESRWKNSVA,NASQREC,QQYHRLPLS,1.74 2.08 1.36 1.11 1.12 1.29,1.45,0/18
KLQQWWLYEGRNKNSVA,SASQRSD,QQYHRLPLS,0.15 -0.06 -0.03 -0.02 0.12 0.29,0.08,0/18
KFPQSVGYETRNKNSVA,EASQRES,QQYHRLPLS,0.94 0.36 0.08 0.55 0.58 0.75,0.54,1/18 (2.24)
KLSQSQEYESINKNSVA,NASTRLT,QQYHRLPLS,0.01 -0.18 -0.35 -0.32 -0.25 -0.05,-0.19,1/18 (4.54)
KFSGSHLYESRMENSVA,NASQRES,QQYHRLPLS,0.13 -0.02 -0.17 -0.28 -0.14 0.10,-0.06,1/18 (5.11)
KMQQSYLYESRNCNSVA,NASTRLW,QQYHRLPLS,0.16 0.30 0.14 -0.03 0.07 0.34,0.16,4/18 (2.21)
KLMQSVCMESRNKNSVA,NASKREE,QQYHRLPLS,0.00 0.35 -0.15 0.53 -0.07 0.24,0.15,1/18 (2.04)
KLMGSMMYEQRMKNSVA,QASTRMS,QQYHRLPLS,0.30 0.62 0.43 0.26 0.62 1.13,0.56,0/18
KLSFSCLYESANKNSVA,NASTRLS,QQYHRLPLS,0.19 -0.21 -0.05 -0.26 -0.35 -0.16,-0.14,0/18
KLSPSWLYEERNDNSVA,NASTRES,QQYHRLPLS,0.00 -0.15 -0.28 -0.24 -0.15 -0.15,-0.16,3/18 (2.35)
KMSQSQLYETRNKNSVA,NGSTRES,QQYHRLPLS,0.38 0.35 0.12 0.12 0.15 0.20,0.22,1/18 (2.16)
KQSQSVLYGERDGNSVA,NASQRLS,QQYHRLPLS,0.80 0.78 0.69 0.60 0.86 0.84,0.76,0/18
KLPFSCLYESRNKNSVA,MASTRCV,QQYHRLPLS,1.12 1.60 0.81 1.13 1.42 1.43,1.25,0/18
KLSQSYLYESTNSNSVA,DASTRES,QQYHRLPLS,0.26 0.42 0.05 0.02 -0.03 0.32,0.17,1/18 (1.14)
KVSQSCLGESRNKMSVA,NASTREK,QQYHRLPLS,-0.10 -0.30 -0.18 -0.30 -0.16 0.02,-0.17,0/18
KMAQENPYESRNSNSVA,NASTREM,QQYHRLPLS,-0.17 -0.01 -0.21 -0.05 -0.09 -0.07,-0.10,1/18 (3.20)
KSSGSVCYGDRMKNSVA,NASTREQ,QQYHRLPLS,0.32 0.38 0.26 0.50 0.37 0.35,0.36,0/18
KLQMQMLYESRMKNSVA,DASLRES,QQYHRLPLS,0.35 0.30 0.30 -0.20 0.09 0.46,0.22,0/18
KIQQSYLYEDRNKNSVA,NASTRLW,QQYHRLPLS,0.11 0.19 0.10 -0.03 -0.15 0.21,0.07,0/18
KLSQSELYMSRNANSVA,NASTRMS,QQYHRLPLS,0.10 0.02 -0.07 -0.06 0.16 0.23,0.06,1/18 (3.37)
KLSQSGLYGMRNKNSVA,QASQRLQ,QQYHRLPLS,0.28 0.33 0.62 0.38 0.42 0.48,0.42,0/18
KLDQDDLYENRNCNSVA,QASTREQ,QQYHRLPLS,-0.02 -0.12 -0.03 -0.37 -0.13 -0.14,-0.13,0/18
KLSMSVQYEARNKNSVA,EASTRED,QQYHRLPLS,0.01 0.13 -0.12 -0.11 -0.11 0.11,-0.01,0/18
KAEVSQDYWSRNQNSVA,NASQRES,QQYHRLPLS,0.29 0.09 0.11 0.00 0.24 0.44,0.20,0/18
KIQQSVYYESLNQNSVA,NASTRLS,QQYHRLPLS,0.78 0.70 0.43 0.55 0.46 0.67,0.60,1/18 (3.70)
KLSQSWLYLSRNHNAVA,QASQRLS,QDYHRLPLS,0.32 0.00 0.04 0.07 0.18 0.18,0.13,1/18 (2.99)
KARQSQLYESRNQNSVA,NASQRLE,QQYHRLPLS,0.17 0.12 0.17 0.05 -0.08 0.17,0.10,0/18
KLSQSTLYESRNTNSVA,QASTRLQ,QQYHRLPLS,1.81 1.00 2.36 2.09 1.20 1.31,1.63,0/18
AISQSVLYESRNQNAVA,EASTRCD,QQYHRLPLS,0.18 -0.09 -0.21 -0.21 -0.03 0.02,-0.05,1/18 (1.97)
HLYQSQLYESRNKNSVA,NASTRLH,QQYHRLPLS,0.68 0.28 0.55 0.44 0.35 0.61,0.49,1/18 (1.67)
KLSQSWLYLARNSNSVA,NASQRED,QQYHRLPLS,1.03 1.69 1.07 0.39 0.01 0.65,0.81,0/18

Excerpt, the final 5 entries:

{"CDR-L1": "KARQSQLYESRNQNSVA", "CDR-L2": "NASQRLE", "CDR-L3": "QQYHRLPLS", "log10 Kd (nM) by replicate": "0.17 0.12 0.17 0.05 -0.08 0.17", "log10 Kd (nM), mean": "0.10", "empty controls": "0/18"}
{"CDR-L1": "KLSQSTLYESRNTNSVA", "CDR-L2": "QASTRLQ", "CDR-L3": "QQYHRLPLS", "log10 Kd (nM) by replicate": "1.81 1.00 2.36 2.09 1.20 1.31", "log10 Kd (nM), mean": "1.63", "empty controls": "0/18"}
{"CDR-L1": "AISQSVLYESRNQNAVA", "CDR-L2": "EASTRCD", "CDR-L3": "QQYHRLPLS", "log10 Kd (nM) by replicate": "0.18 -0.09 -0.21 -0.21 -0.03 0.02", "log10 Kd (nM), mean": "-0.05", "empty controls": "1/18 (1.97)"}
{"CDR-L1": "HLYQSQLYESRNKNSVA", "CDR-L2": "NASTRLH", "CDR-L3": "QQYHRLPLS", "log10 Kd (nM) by replicate": "0.68 0.28 0.55 0.44 0.35 0.61", "log10 Kd (nM), mean": "0.49", "empty controls": "1/18 (1.67)"}
{"CDR-L1": "KLSQSWLYLARNSNSVA", "CDR-L2": "NASQRED", "CDR-L3": "QQYHRLPLS", "log10 Kd (nM) by replicate": "1.03 1.69 1.07 0.39 0.01 0.65", "log10 Kd (nM), mean": "0.81", "empty controls": "0/18"}